The text below walks through data of ChEMBL document CHEMBL1127586, “Central cholinergic agents. 6. Synthesis and evaluation of 3-[1-(phenylmethyl)-4-piperidinyl]-1-(2,3,4,5-tetrahydro-1H-1-benzazepi n-8-yl)-1-propanones and their analogs as central selective acetylcholinesterase inhibitors” (J Med Chem, 1994).

This assay addresses T1, Acetylcholinesterase (Rattus norvegicus, UniProt P37136).
T1 sequence (P37136 whole entry): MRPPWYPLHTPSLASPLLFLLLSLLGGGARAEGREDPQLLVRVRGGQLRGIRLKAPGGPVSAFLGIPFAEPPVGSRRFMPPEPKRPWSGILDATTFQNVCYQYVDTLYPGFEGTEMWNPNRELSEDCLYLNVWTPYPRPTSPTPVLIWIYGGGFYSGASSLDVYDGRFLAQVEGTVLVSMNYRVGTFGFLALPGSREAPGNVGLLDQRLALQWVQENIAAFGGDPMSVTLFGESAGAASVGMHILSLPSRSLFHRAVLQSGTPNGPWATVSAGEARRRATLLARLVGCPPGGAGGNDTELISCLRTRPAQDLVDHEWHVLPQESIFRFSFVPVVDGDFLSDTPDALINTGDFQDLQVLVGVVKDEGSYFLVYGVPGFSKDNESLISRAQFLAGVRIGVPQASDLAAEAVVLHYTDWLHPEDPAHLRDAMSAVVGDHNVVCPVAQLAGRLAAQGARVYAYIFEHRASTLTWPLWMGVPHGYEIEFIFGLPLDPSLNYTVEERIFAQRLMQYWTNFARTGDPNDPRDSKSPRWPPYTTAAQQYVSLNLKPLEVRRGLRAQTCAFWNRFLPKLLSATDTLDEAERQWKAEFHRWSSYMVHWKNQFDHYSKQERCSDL
For `COc1ccc(CN2CCC(CCC(=O)c3ccc4c(c3)NCCCC4)CC2)cc1`, 55.2 µM corresponded to half-maximal inhibition (IC50).
For the compound `COc1ccc(CN2CCC(CCC(=O)c3ccc4c(c3)CCN4)CC2)cc1`, the IC50 (commonly the midpoint of a concentration-inhibition curve) is 13.3 µM.
For the compound `O=C(CCC1CCN(Cc2ccccc2F)CC1)c1ccc2c(c1)NCCCC2`, half-maximal inhibition (IC50) required 0.331 µM.
